## AlphaSeq binding of Ab-14 light chain variants to a spike HR2 peptide

Target: peptide PDVDLGDISGINAS, taken from heptad repeat 2 (HR2) of SARS-CoV-2 spike.

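The parent was found by panning a naive human phage display library on the peptide. The variants were designed computationally from a first round of random CDR variants and then made and measured. Their group label is 14L_GP_HC (GP: Gaussian process model; HC: hill climbing; a sequence that several methods proposed may carry one label only). AlphaSeq pools MATa yeast showing the antibodies with MATalpha yeast showing the peptide. Mating (16 h, 30 °C) was followed by selection of diploids and sequencing of their barcodes. Read counts were normalised to the haploid input and turned into Kd by a linear fit to BCL2-family pairs of known affinity, for each replicate. Mating was done six times.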

Parent scFv Ab-14: VH joined to VL by three GGGGS repeats. Changes lie in the light chain CDRs alone.
VH: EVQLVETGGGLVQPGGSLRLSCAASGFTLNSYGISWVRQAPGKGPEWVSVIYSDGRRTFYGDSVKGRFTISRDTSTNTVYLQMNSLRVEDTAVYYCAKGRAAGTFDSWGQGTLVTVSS
VL: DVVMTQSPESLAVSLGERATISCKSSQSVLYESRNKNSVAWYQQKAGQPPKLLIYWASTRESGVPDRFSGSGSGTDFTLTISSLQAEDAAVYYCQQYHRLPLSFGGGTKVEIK

Each variant is given by its three light chain CDRs, as the data file delimits them; those of the parent are KSSQSVLYESRNKNSVA, WASTRES, QQYHRLPLS. Values are log10 of the apparent Kd in nM; lower means stronger binding. Values of this round are not directly comparable with the first-round values of the same sequences.

CDR-L1	CDR-L2	CDR-L3	log10 Kd, replicates	signal with controls
KLSQSWLYDSRNKNNVA	NASTRES	QQYHRLPLS	-0.24 / -0.22 / -0.49 / -0.50 / -0.41 / -0.25	4 of 18 (2.40)
KSSQSYHYESRNKNSVA	HASTRES	QQYHRLPLS	0.96 / 0.86 / 1.56 / 0.72 / 0.98 / 1.64	1 of 18 (2.95)
KFSQSELYESRTKNGVA	NASTRES	QQYHRLPLS	-0.04 / -0.01 / -0.30 / -0.30 / -0.07 / 0.07	1 of 18 (2.37)
KSSGSYLYESRNKNSVA	EASTRES	QQYHRLPLM	-0.11 / 0.40 / 0.17 / 0.07 / 0.11 / 0.71	0 of 18
KSSISQLYESRMKNSVA	EASTRES	QQYHRLPLS	0.70 / 0.60 / 0.64 / 0.50 / 0.31 / 0.69	3 of 18 (2.64)
KSSQSFLSESRWKNSVA	DASQRES	QQYHRLPLS	-0.34 / 0.09 / 0.08 / -0.09 / -0.04 / -0.13	0 of 18
KSSCGVLYESRNKNSVA	GASTRES	QQYHRLPLS	-0.16 / 0.05 / -0.27 / -0.25 / -0.03 / 0.25	1 of 18 (3.45)
HSSPSVLYESRMKNSVA	NASTRES	QQYHRLPLS	1.11 / 1.73 / 2.00 / 2.67 / 0.74 / 1.53	0 of 18
KLPQGVLYESRNKNSVA	NASTRES	QQYHRLPLS	-0.21 / -0.34 / -0.45 / -0.58 / -0.53 / -0.37	0 of 18
KLEQSFNYESRNKNSVA	NASTRES	QQYHRLPLS	-0.41 / -0.45 / -0.43 / -0.45 / -0.46 / -0.17	1 of 18 (2.16)
KSLMSVLYESRNKNSVA	EASTRED	QQYHQLPLS	1.60 / 0.79 / 1.05 / 1.03 / 0.98 / 0.85	1 of 18 (1.71)
KLSISYLYESRNKNSVA	EASTREQ	QQYHRLPLS	-0.04 / -0.30 / -0.43 / -0.47 / -0.28 / -0.17	0 of 18
KLQQSQEYESRNKNSVA	QASTRED	QQYHRLPLS	0.27 / 0.09 / -0.08 / 0.18 / -0.03 / 0.28	1 of 18 (2.27)
KVSQSVLYESRLKNSVA	DASTRCS	QQYHRLPLS	1.23 / 0.56 / 0.19 / 0.21 / -0.06 / -0.20	0 of 18
KQSQSDLVESRNKNSVA	DASTRES	QQYHRLPLS	-0.37 / -0.62 / -0.46 / -0.76 / -0.38 / -0.31	0 of 18
KQSQSVLGEQRNKNSVA	DASTRES	QQYHRLPLS	-0.25 / -0.29 / -0.27 / -0.32 / -0.36 / -0.11	1 of 18 (2.67)
KFSGSVWYESRTKNSVA	NASTRES	QQYHRLPLS	0.06 / 0.11 / 0.02 / -0.10 / 0.11 / 0.16	0 of 18
KQSPSVLYESRNKNSVA	NGSTREV	QQYHRLPLS	0.06 / 0.18 / -0.17 / 0.00 / -0.15 / 0.10	2 of 18 (2.87)
KVLQSVVYEERNKNSVA	HASTRED	QQYHRLPLS	-0.06 / -0.05 / -0.17 / -0.25 / -0.15 / 0.09	0 of 18
KLSQGWLYESRNKNSVA	GASTRED	QQYHRLPLS	-0.07 / -0.18 / -0.54 / -0.71 / -0.34 / 0.36	0 of 18
KLEQSTLYESRNPNSVA	WASTRES	QQYHRLPLS	0.24 / 0.25 / 0.18 / 0.19 / 0.18 / 0.33	2 of 18 (4.27)
KLSQSVLYESRWKNSVA	GASQRES	QQYHRLPLS	0.38 / 0.79 / 0.26 / 0.32 / 0.03 / 0.28	0 of 18
KSPQSQEYESRNKNSVA	HASTRED	QQYHCLPLS	0.13 / -0.30 / 0.44 / 0.33 / 0.14 / 0.24	1 of 18 (1.48)
KSSWSVLGESRNKNSVA	DASTRSS	QQYHRLPLS	-0.13 / -0.26 / 0.00 / -0.32 / -0.41 / 0.29	0 of 18
KFSQSVLYESRCKNSVA	NAVTRET	QQYHRLPLS	0.61 / 0.59 / 0.30 / 0.69 / 0.38 / 0.61	0 of 18
KLSQSWLYESRNKNSVA	HGSTRES	QQYHRLPLS	0.44 / 0.31 / 0.31 / 0.22 / 0.13 / 0.30	0 of 18
KFSQWVLYESRTKNSVA	NASTRED	QQYHRLPLS	0.33 / 0.29 / -0.09 / 0.01 / -0.21 / 0.68	1 of 18 (1.13)
KLRQSTKYESRNQNSVA	EASTRES	QQYHRLPLS	0.09 / 0.04 / 0.12 / -0.15 / 0.05 / 0.21	0 of 18
KSSQSFLYESRQKNSVA	GASQRES	QQYHRLPLS	0.78 / 0.20 / 0.12 / 0.09 / 0.46 / 0.43	0 of 18
KFSQSVLYESRTQNSVA	NASTRES	QQYHRLPLS	-0.35 / -0.18 / -0.43 / -0.38 / -0.34 / 0.03	1 of 18 (2.41)
KFSQSVLYESRMSNSVA	NASTRES	QQYHRLPLS	-0.08 / -0.20 / -0.37 / -0.60 / -0.52 / -0.27	0 of 18
KFSQSVLMESRNCNSVA	DASTRES	QQYHRLPLS	0.79 / 0.80 / 0.61 / 0.58 / 0.89 / 0.82	3 of 18 (3.37)
HSSPSVLYESRNKNSVA	DASTRES	QQYHRLPLS	0.75 / 0.93 / 0.07 / 0.89 / 0.80 / 0.75	0 of 18
KESQSMIYESRNKNSVA	GASTRES	QQYHRLPLS	0.07 / 0.32 / -0.06 / -0.20 / 0.30 / 0.52	0 of 18
KSSQSWLYESRNFWSVA	SASTRES	QQYHRLPLS	1.74 / 1.24 / 1.17 / 0.86 / 1.42 / 1.06	0 of 18

The last 3 entries again:

CDR-L1	CDR-L2	CDR-L3	log10 Kd, replicates	signal with controls
HSSPSVLYESRNKNSVA	DASTRES	QQYHRLPLS	0.75 / 0.93 / 0.07 / 0.89 / 0.80 / 0.75	0 of 18
KESQSMIYESRNKNSVA	GASTRES	QQYHRLPLS	0.07 / 0.32 / -0.06 / -0.20 / 0.30 / 0.52	0 of 18
KSSQSWLYESRNFWSVA	SASTRES	QQYHRLPLS	1.74 / 1.24 / 1.17 / 0.86 / 1.42 / 1.06	0 of 18

Empty control strains, which show no peptide, gave a signal in 4% of pairings with all light chain designs; the median was 2.64 and 95% of these signals were weaker than 1.59. No background was subtracted. For each scFv, signals with the empty controls are counted beside the result, with their mean in brackets. The authors' rule: three or more of the six replicates give a measured affinity, fewer mean a poor binder. The parent sequence was in this pool as ten entries: three were never detected, three once, and four in most replicates, with averages from 0.34 to 2.37.

Data: MIT Lincoln Laboratory AlphaSeq set, Li et al. 2023, doi:10.1038/s41467-023-39022-2, as distributed in FLAb.